The target of this experiment is T1, Hazel (Cor A 1, MyBiosource, Cat# MBS5304600) (Hazel, UniProt Q08407 2-160, limits assumed).
T1 construct: Bought reagent
T1 sequence (looked up): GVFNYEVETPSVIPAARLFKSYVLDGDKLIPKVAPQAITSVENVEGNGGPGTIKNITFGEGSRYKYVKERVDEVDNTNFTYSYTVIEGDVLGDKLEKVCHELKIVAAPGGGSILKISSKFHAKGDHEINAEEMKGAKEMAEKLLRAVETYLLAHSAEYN
The experiment is described as follows: SPR Biacore 4000, mAb captured by anti-human Fc, 25 C. (In general: Surface plasmon resonance follows binding to a sensor surface in real time, without labels.)

The values that follow come from patent US20180346555A1 (Regeneron, published 2018).

As usually defined, the Kd is the free concentration of one partner at which half of the binding sites on the other are occupied at equilibrium, for simple one-to-one binding. Low readings indicate higher affinity, high ones lower affinity.
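Note: allergen analyte binding to captured, purified anti-Bet v 1 monoclonal antibodies, SPR in HEPES-buffered saline running buffer with EDTA and Tween-20 at pH 7.4.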

B1: H4H17082P2 (antibody, human IgG4 S228P, kappa, V domains shown)
VH: QVQLVQSGAEVKKPGASVKVSCKASGYTFISYNIFWVRQATGQGLDWMGWMNPFRNNAGYAQKFQGRVTVTWDTSISTAYMELSSLSSEDTAIYYCAREHGSSWGFFDYWGQGTLVTVSS
VL: not shown
notes: human IgG4 Fc; also called REGN5715; MAB2
As for B1, the affinity, expressed as Kd, was 0.396 µM.
